The chains behind the UniProt entries cited, without tags or fusion partners. Where a name states a change or a piece, a line headed by the entry shows the natural chain unless it says otherwise.
UniProt Q9Y233: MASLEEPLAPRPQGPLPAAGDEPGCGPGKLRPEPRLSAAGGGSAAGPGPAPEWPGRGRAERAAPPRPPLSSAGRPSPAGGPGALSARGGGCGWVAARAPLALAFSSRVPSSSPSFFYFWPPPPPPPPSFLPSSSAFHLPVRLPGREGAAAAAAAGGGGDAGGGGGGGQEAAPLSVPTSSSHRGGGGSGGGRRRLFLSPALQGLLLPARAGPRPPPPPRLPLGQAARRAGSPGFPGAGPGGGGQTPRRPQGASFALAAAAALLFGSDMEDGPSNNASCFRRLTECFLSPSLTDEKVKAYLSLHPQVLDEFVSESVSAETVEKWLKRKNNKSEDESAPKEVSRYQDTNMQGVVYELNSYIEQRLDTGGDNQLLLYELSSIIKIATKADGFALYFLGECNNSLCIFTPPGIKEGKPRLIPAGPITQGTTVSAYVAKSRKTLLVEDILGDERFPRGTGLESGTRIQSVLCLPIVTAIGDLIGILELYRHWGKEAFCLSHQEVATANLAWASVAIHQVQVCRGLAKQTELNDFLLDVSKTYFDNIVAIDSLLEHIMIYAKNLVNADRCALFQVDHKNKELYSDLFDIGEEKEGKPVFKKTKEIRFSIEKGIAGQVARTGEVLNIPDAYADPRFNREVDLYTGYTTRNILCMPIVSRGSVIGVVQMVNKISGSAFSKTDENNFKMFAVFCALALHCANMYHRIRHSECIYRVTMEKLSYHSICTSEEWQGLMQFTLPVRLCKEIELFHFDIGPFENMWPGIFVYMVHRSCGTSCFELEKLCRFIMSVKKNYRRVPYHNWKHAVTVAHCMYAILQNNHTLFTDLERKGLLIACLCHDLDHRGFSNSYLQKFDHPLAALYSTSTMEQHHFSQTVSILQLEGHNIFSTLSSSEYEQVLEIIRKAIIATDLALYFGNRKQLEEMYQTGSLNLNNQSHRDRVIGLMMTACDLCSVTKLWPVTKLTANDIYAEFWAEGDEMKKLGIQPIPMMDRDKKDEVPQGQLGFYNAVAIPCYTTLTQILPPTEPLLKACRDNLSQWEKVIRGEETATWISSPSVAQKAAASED
UniProt P50406, whole entry: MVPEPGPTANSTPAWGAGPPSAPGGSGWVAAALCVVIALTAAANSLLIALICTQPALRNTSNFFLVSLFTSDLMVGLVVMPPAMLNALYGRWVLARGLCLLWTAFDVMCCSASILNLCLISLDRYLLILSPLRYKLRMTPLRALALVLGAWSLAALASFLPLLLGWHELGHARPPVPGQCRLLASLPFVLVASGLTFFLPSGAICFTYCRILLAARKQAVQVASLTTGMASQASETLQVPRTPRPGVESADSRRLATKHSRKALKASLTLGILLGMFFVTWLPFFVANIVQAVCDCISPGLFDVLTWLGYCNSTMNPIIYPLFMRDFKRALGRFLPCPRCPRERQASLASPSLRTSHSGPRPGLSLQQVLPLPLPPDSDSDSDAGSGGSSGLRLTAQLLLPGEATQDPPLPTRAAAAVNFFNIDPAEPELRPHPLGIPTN

According to ChEMBL document CHEMBL5143617 (Eur J Med Chem, 2022):

Key:
[1] = target: cAMP and cAMP-inhibited cGMP 3',5'-cyclic phosphodiesterase 10A (Homo sapiens, UniProt Q9Y233); assay: Inhibition of PDE10A (unknown origin) at 10 uM preincubated for 20 mins followed by substrate addition and measured after 1 hr by PEDlight AMP detection reagent based luminescence assay relative to control; settings: time 80.0 min
[2] = target: 5-hydroxytryptamine receptor 6 (Homo sapiens) (UniProt P50406); assay: Inhibition of 5-HT6 receptor (unknown origin); settings: concentration not given here

Row | inhibition [1] [%] | inhibition [2] [%] | SMILES
1 | 20 |  | COc1cc2ncnc(N3CCC(CN4CCN(c5ccccc5O)CC4)C3)c2cc1OC (stereo not drawn)
2 | 27 | 5 | COc1cccc(N2CCN(CC3CCN(c4ncnc5cc(OC)c(OC)cc45)C3)CC2)c1 (stereo not drawn)
